Data taken from patent US6933313B2, “Substituted carbazoles as inhibitors of sPLA2” (Eli Lilly and Company, priority 2001, dated 2005).

Sequences of proteins named here, by UniProt entry; tags and fusion partners are left off. Residues count along the entry.
UniProt P14555, 21-144 limits assumed: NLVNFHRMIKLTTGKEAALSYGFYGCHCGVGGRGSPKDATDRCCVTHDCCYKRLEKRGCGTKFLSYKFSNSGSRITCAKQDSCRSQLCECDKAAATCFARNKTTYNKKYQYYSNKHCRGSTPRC

Molecular target: recombinant human secreted phospholipase A2 (Homo sapiens, UniProt P14555)
Assay: Chromogenic assay for inhibitors of recombinant human secreted phospholipase A2 (Assay Example 1)
Conditions: read-out: IC50 (nM) (nanomolar); diheptanoyl thio-PC substrate, pH 7.5, absorbance at 405 nm, triplicate

IC50: 12 nM
Structure (SMILES): NC(=O)c1cccc2c1c1c(OCC(=O)NOc3ccccc3)cccc1n2Cc1ccccc1
